Our source for the inhibition values is PubChem BioAssay AID1486 (The Scripps Research Institute Molecular Screening Center, 2009).

Only a part is listed here, and it is no random draw. The source made the active and inactive calls.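 Rule for the calls: active = inhibition above a per-campaign cutoff, the mean inhibition of all tested compounds plus 3 SD (cut at about 27% in these data); inactive = the rest.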

The test in a line: growth loss in parental Ba/F3 cells – cell-based, murine pro-B, CellTiter-Glo luminescence, counter-screen for JAK2V617F inhibitor project (AID 1486).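 Note: 0% = DMSO wells and 100% = JAK Inhibitor I control wells.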 The conditions noted are these: Ba/F3 parental viability, CellTiter-Glo ATP luminescence; at 5.6 µM; active compounds read high. On the technique in general: In ATP-based viability assays light output follows the ATP content of the culture.
As usually defined, the inhibition is the relative decrease from the control value, in per cent. With `COc1ccccc1OP(C)(=O)Nc1ccccc1` (stereo not drawn), the inhibition is inactive: 5.88%.
In the case of `CP(=O)(Nc1ccccc1Br)Oc1ccccc1` (stereo not drawn) it was inactive: 7.7%.
In the case of `CP(=S)(Nn1cnnc1)Oc1ccccc1` (stereo not drawn), the inhibition is inactive: 3.28%.
Consider `Cc1cc(C)cc(OP(C)(=O)Nc2ccc(SC(F)(F)F)cc2)c1` (stereo not drawn), for which the inhibition is inactive: 3.52%.
With `CCc1ccc(OP(C)(=O)N2CCN(c3ccc([N+](=O)[O-])cc3)CC2)cc1` (stereo not drawn), the inhibition is inactive: 2.59%.
As to `CP(=O)(NC(=O)Nc1ccccc1)Oc1ccccc1` (stereo not drawn), the inhibition was inactive: 5.22%.
For the compound `CP(=O)(Oc1ccccc1)OC(c1ccccc1)C(F)(F)F` (stereo not drawn), the inhibition is inactive: 6.95%.
In the case of `CP(=O)(Nc1ccc(SC(F)(F)F)cc1)Oc1ccc(Cl)cc1` (stereo not drawn), the inhibition is inactive: -2.11%.
In the case of `Cc1cccc(C)c1OP(C)(=O)Nc1ccc(SC(F)(F)F)cc1` (stereo not drawn) it was inactive: 0.18%.
Take `CP(=O)(Nc1ccccn1)Oc1ccc(Cl)cc1` (stereo not drawn): the inhibition was inactive: 0.46%.
In the case of `CCOP(C)(=S)SCC(=O)NC(C)C(=O)O` (stereo not drawn) it was inactive: 1.1%.
In the case of `CCOC(=O)c1ccc(NP(C)(=O)Oc2ccc(OC)cc2)cc1` (stereo not drawn) it was inactive: 8.66%; in that of `CCN(CC)CCCOC(=O)C(O)(c1ccccc1)c1ccccc1`, inactive: 4.97%; in that of `Cc1cccc(C)c1OP(C)(N)=O` (stereo not drawn), inactive: 3.4%.
Then `CC(C)(C)c1ccc(OP(C)(=O)Nc2ccc(SC(F)(F)F)cc2)cc1` (stereo not drawn), with inactive: 6.23%; and `O=[N+]([O-])c1ccc2c(c1)C=Nc1ccccc1O2`, with inactive: 5.75%.
On to `COc1ccc(OP(C)(=O)Nc2cccc(F)c2)cc1` (stereo not drawn), for which the inhibition was inactive: 4.19%.
Turning to `COc1ccccc1OP(C)(=O)Nc1cc(Cl)ccc1C` (stereo not drawn), the inhibition was inactive: 5.74%.
Regarding `Cc1cc(C)cc(OP(C)(N)=O)c1` (stereo not drawn), the inhibition was inactive: 8.61%.
For the compound `CCOC(=O)c1ccc(NP(C)(=O)Oc2ccccc2)cc1` (stereo not drawn), the inhibition was inactive: 2.45%.
For the compound `Cc1ccc(NP(C)(=O)Oc2ccccc2)c(C)c1` (stereo not drawn), the inhibition is inactive: 2.39%.
In the case of `COc1ccccc1OP(C)(=O)Nc1ccc(C)cc1` (stereo not drawn) it was inactive: 5.22%.
As to `O=C(O)c1cccc(Nc2c([N+](=O)[O-])cc([N+](=O)[O-])cc2[N+](=O)[O-])c1`, the inhibition was inactive: 0.04%.
`CC1=NCCc2c1[nH]c1ccccc21.O=[N+]([O-])c1cc([N+](=O)[O-])c(O)c([N+](=O)[O-])c1`: the inhibition was inactive: 3.61%.
On to `Cc1cc(C)cc(OP(C)(=O)Nc2ccc(C)cc2C)c1` (stereo not drawn), for which the inhibition was inactive: 8.44%.
Take `CCOC(=O)c1ccc(NP(C)(=O)Oc2cc(C)cc(C)c2)cc1` (stereo not drawn): the inhibition was inactive: -0.01%.
For the compound `COc1ccccc1OP(C)(=O)Nc1cccc(Br)c1` (stereo not drawn), the inhibition was inactive: -6.59%.
On to `CP(=O)(Nc1cccc(Br)c1)Oc1ccccc1` (stereo not drawn), for which the inhibition is inactive: 6.83%.
Take `Cc1cc(C)cc(OP(C)(=O)Nc2ccccn2)c1` (stereo not drawn): the inhibition is inactive: 5.31%.
Then `Cc1ccc(C)c(NP(C)(=O)Oc2ccccc2)c1` (stereo not drawn), with inactive: 3.98%; and `O=[N+]([O-])c1cc([N+](=O)[O-])c(-n2nnc3ccccc32)c([N+](=O)[O-])c1`, with inactive: 8.39%; and `Cc1nc2ccc3ccccc3c2s1.O=[N+]([O-])c1cc([N+](=O)[O-])c(O)c([N+](=O)[O-])c1`, with inactive: 2.38%.
Then `CCOC(=O)C(CC)C1=NC(C)(C)Cc2ccccc21.O=[N+]([O-])c1cc([N+](=O)[O-])c(O)c([N+](=O)[O-])c1` (stereo not drawn), with inactive: -0.71%.
On to `O=[N+]([O-])c1cc([N+](=O)[O-])c(Nc2nnnn2CCO)c([N+](=O)[O-])c1`, for which the inhibition is inactive: -3.99%.
Take `CP(=O)(Nc1ccc(SC(F)(F)F)cc1)Oc1ccccc1` (stereo not drawn): the inhibition is inactive: -1.37%.
Then `CCCOc1ccc(NP(C)(=O)Oc2ccc(Cl)cc2)cc1` (stereo not drawn), with inactive: 1.84%; and `CN1CCCCC1COC(=O)C1(O)c2ccccc2CCc2ccccc21` (stereo not drawn), with inactive: 5.67%.
In the case of `COc1ccccc1OP(C)(=O)Nc1c(C)cccc1C` (stereo not drawn) it was inactive: 9.1%.
Consider `COc1ccc(NP(C)(=O)Oc2ccccc2OC)cc1` (stereo not drawn), for which the inhibition is inactive: 3.31%.
As to `CN(C)CCOC(=O)C(O)(c1ccccc1)C1CCCCC1` (stereo not drawn), the inhibition was inactive: -0.41%.
In the case of `COc1ccc(OP(C)(=O)Nc2cccc(Br)c2)cc1` (stereo not drawn) it was inactive: 3.93%; in that of `Cc1cc(-c2cccc3ccccc23)c(C)cn1.O=[N+]([O-])c1cc([N+](=O)[O-])c(O)c([N+](=O)[O-])c1`, inactive: -3.55%; in that of `O=[N+]([O-])c1cc([N+](=O)[O-])c(NCC2CCS(=O)(=O)C2)c([N+](=O)[O-])c1` (stereo not drawn), inactive: 1.23%.
Then `O=[N+]([O-])c1ccc(OP2(=O)COCCO2)cc1` (stereo not drawn), with inactive: -0.81%; and `CCOP(C)(=S)SCC(=O)NC(C)(CC)C(=O)O` (stereo not drawn), with inactive: 2.86%.
Regarding `CP(=O)(Nc1ccc(SC(F)(F)F)cc1)Oc1ccc(F)cc1` (stereo not drawn), the inhibition is inactive: 1.42%.
For the compound `Cc1ccccc1NP(C)(=O)Nc1ccccc1C`, the inhibition was inactive: 2.84%.
As for `CP(=O)(Nc1ccc2c(c1)OCCO2)Oc1ccccc1` (stereo not drawn), the inhibition was inactive: 2.93%.
Consider `CC(C)c1ccc(OP(C)(=O)Nc2ccc(SC(F)(F)F)cc2)cc1` (stereo not drawn), for which the inhibition was inactive: 4.24%.
Then `CP(=O)(Nc1ccccc1F)Oc1ccccc1` (stereo not drawn), with inactive: 1.7%; and `O=C(OCCN1CCN(CCOCc2ccccc2)CC1)C(O)(c1ccccc1)c1ccccc1`, with inactive: 4.12%.
For `O=C(OC1CN2CCC1CC2)c1ccc([N+](=O)[O-])cc1` (stereo not drawn), the inhibition is inactive: -0.27%.
Then `COc1ccc(OP(C)(=O)Nc2ccc(SC(F)(F)F)cc2)cc1` (stereo not drawn), with inactive: 0.74%.
On to `CCOC(=O)c1ccc(NP(C)(=O)Oc2ccc(F)cc2)cc1` (stereo not drawn), for which the inhibition was inactive: -0.29%.
As to `CCCCCOc1ccc(NP(C)(=O)Oc2ccc(Cl)cc2Cl)cc1` (stereo not drawn), the inhibition is inactive: 0.83%.
In the case of `CP(=O)(Nc1ccccc1)Oc1ccc(F)cc1` (stereo not drawn) it was inactive: -1.3%.
Regarding `CCN(CC)CCCOC(=O)C(O)(c1ccccc1)C1CCCCC1` (stereo not drawn), the inhibition is inactive: 5.53%.
Then `COc1ccc(OP(C)(=O)Nc2ccccc2Br)cc1` (stereo not drawn), with inactive: 13.4%.
Then `COc1ccccc1OP(C)(=O)Nc1ccc(C)c(C)c1` (stereo not drawn), with inactive: 4.03%; and `Cc1cc(C)cc(OP(C)(=O)Nc2cccc(C(F)(F)F)c2)c1` (stereo not drawn), with inactive: 9.11%.
With `CP(=O)(OCCOc1ccccc1)OCCOc1ccccc1`, the inhibition was inactive: 7.69%.
In the case of `CP(=O)(Nc1ccc(Cl)cc1Cl)Oc1ccccc1` (stereo not drawn) it was inactive: 6.45%; in that of `Cc1nc2ccc3ccccc3c2o1.O=[N+]([O-])c1cc([N+](=O)[O-])c(O)c([N+](=O)[O-])c1`, inactive: 3.51%; in that of `CN(C)CCOC(=O)C(O)(c1ccccc1)C1CCCC1` (stereo not drawn), inactive: 0.9%.
Turning to `COc1ccc(OP(C)(=O)Nc2ccccn2)cc1` (stereo not drawn), the inhibition was inactive: 4.16%.
In the case of `COc1ccccc1OP(C)(=O)Nc1ccc(Br)cc1` (stereo not drawn) it was inactive: -1.03%; in that of `CCc1ccc(OP(C)(=O)O)cc1`, inactive: 1.23%; in that of `COc1ccccc1OP(C)(=O)Nc1ccc(C)cc1C` (stereo not drawn), inactive: 0.67%.
In the case of `CP(=O)(Nc1ccccn1)Oc1ccccc1` (stereo not drawn) it was inactive: 4.88%; in that of `O=[N+]([O-])c1cc([N+](=O)[O-])c(Nc2ccccn2)c([N+](=O)[O-])c1`, inactive: -4.69%.
In the case of `Cc1c(NP(C)(=O)Oc2ccc(C(C)C)cc2)c(=O)n(-c2ccccc2)n1C` (stereo not drawn) it was inactive: 2.85%; in that of `CCc1ccc(OP(C)(=O)Nc2cccnc2)cc1` (stereo not drawn), inactive: -1.57%.
On to `CP(=O)(Oc1ccccc1)N1CCOC1=O` (stereo not drawn), for which the inhibition was inactive: -0.79%.
In the case of `O=C(OCCCN1CCCC1)C(O)(c1ccccc1)C1CCCCC1` (stereo not drawn) it was inactive: 3.65%; in that of `COc1ccccc1OP(C)(=O)Nc1c(C)n(C)n(-c2ccccc2)c1=O` (stereo not drawn), inactive: 3.38%.
Then `COc1ccc(OP(C)(=O)Nc2ccc(Br)cc2)cc1` (stereo not drawn), with inactive: 1.81%.
In the case of `CCN(CC)CC(O)COC(=O)C(O)(c1ccccc1)C1CCCCC1` (stereo not drawn) it was inactive: 5.15%; in that of `CN(C)C(=O)c1c([N+](=O)[O-])cc([N+](=O)[O-])cc1[N+](=O)[O-]`, inactive: 0.74%.
For `CP(=O)(Nc1ccc(Cl)cc1)Oc1ccc(F)cc1` (stereo not drawn), the inhibition is inactive: 4.35%.
As to `CC(C)(C)c1ccc(OP(C)(=O)O)cc1`, the inhibition was inactive: 1.67%.
Then `COc1ccccc1OP(C)(=O)Nc1ccccc1Br` (stereo not drawn), with inactive: 0.32%; and `CP(=O)(OC12CC3CC(CC(C3)C1)C2)OC12CC3CC(CC(C3)C1)C2`, with inactive: 5.75%.
In the case of `CCOC(=O)c1ccc(NP(C)(=O)Oc2ccc(Cl)cc2)cc1` (stereo not drawn) it was inactive: 6.32%.
